Test results taken from article PMC317294 (BMC Pharmacology, 2003).

Amino acid sequences for entries named in this document (tags omitted).
UniProt P35372, whole entry: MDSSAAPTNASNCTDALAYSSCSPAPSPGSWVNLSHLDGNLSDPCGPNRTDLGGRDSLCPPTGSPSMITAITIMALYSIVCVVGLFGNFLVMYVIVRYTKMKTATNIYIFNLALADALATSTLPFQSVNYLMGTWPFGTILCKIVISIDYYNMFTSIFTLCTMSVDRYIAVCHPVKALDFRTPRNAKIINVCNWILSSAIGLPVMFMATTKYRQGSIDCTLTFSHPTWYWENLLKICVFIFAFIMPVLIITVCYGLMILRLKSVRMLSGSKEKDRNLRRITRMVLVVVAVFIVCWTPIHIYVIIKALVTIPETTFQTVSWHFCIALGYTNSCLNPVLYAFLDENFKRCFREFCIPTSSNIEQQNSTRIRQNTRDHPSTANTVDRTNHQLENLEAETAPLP
UniProt P35372, whole entry C348A/C353A: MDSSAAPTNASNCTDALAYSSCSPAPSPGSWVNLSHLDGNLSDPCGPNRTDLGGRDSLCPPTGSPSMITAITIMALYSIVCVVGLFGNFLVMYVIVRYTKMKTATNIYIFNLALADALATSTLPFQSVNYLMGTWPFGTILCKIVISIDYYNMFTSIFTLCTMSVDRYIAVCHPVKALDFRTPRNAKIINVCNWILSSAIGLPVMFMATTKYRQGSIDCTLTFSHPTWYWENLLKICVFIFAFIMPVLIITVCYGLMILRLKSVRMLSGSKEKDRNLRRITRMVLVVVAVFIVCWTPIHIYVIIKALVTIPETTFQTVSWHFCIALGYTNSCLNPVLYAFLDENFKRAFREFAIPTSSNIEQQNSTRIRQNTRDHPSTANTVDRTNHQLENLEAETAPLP

Tests used:
[1] = biological target: human mu opioid receptor (hMOR) (Homo sapiens, UniProt P35372); assay: biochemical
Ala^348,353 hMOR = Ala^348,353 hMOR (Homo sapiens, UniProt P35372, C348A/C353A); assay: biochemical; assay type: binding

With C[C@@H](NC(=O)[C@@H](N)Cc1ccc(O)cc1)C(=O)N[C@@H](Cc1ccccc1)C(=O)NCC(=O)N[C@@H](Cc1ccc(O)cc1)C(=O)N1CCC[C@H]1C(=O)N[C@@H](CO)C(N)=O [Dermorphin] as the molecule, how does the Ki [1] read?
Its Ki is 4.1 ± 1.7 nM.

And the Ki (Ala^348,353 hMOR)?
The Ki was 0.26 ± 0.1 nM.

For Oc1ccc2c3c1O[C@H]1c4[nH]c5ccccc5c4C[C@@]4(O)[C@@H](C2)N(CC2CC2)CC[C@]314 [Naltrindole], which Ki [1] is on record?
Its Ki is 5.07 ± 0.58 nM.

And the Ki (Ala^348,353 hMOR)?
The Ki was 5.42 ± 0.56 nM.
